The record followed here is PubChem BioAssay AID488839 (Broad Institute, 2010).

Amino acid sequences for entries named in this document (tags omitted).
UniProt Q00535, whole entry, looked up: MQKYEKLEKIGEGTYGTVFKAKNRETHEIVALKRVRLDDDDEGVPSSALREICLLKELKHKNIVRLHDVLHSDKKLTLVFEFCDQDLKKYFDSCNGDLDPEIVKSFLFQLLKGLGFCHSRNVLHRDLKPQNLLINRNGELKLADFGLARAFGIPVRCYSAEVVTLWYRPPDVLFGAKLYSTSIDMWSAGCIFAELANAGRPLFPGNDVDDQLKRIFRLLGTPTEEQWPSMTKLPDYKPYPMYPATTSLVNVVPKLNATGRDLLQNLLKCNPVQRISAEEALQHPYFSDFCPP
UniProt Q15078, whole entry, looked up: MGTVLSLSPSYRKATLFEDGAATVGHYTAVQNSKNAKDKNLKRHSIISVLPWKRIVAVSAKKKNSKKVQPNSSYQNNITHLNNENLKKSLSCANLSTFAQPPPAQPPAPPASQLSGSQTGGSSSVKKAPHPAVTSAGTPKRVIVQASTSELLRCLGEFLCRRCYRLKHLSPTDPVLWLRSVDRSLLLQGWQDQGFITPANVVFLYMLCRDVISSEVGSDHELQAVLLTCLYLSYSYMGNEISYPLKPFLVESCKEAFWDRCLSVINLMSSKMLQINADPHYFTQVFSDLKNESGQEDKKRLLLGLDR

The entries are a selection whose mix differs from that of the whole data set. Calls of active or inactive are those of the source.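 The calls were made as follows: active = highest replicate inhibition of at least 50% and at least 75% of replicates reaching 50%; inconclusive = only one of the two criteria met; inactive = both criteria failed.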

This assay concerns the target Cyclin-dependent kinase 5 (Homo sapiens) + Cyclin-dependent kinase 5 activator 1 (Homo sapiens) (UniProt Q00535+Q15078). In words: CDK5/p35 phosphotransfer blockade – biochemical, single concentration, primary screen (AID 488839).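 Also: plate controls were DMSO neutral control for no effect and GW8510 at 10 µM for full effect.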 The settings on record: Recombinant CDK5/p35, ADP-Glo luminescence, 60 min; at 10 µM; active compounds read high. Background: In ADP-Glo the light output rises with the ADP produced.
The term inhibition denotes the change of the read-out against control, counted positive when it falls. For the compound `O=C(OC1CN2CCC1CC2)C1c2ccccc2C=Cc2ccccc21` (centres undefined), the inhibition was inactive: -1.43%. With `CCOC(=O)N1CCC(Nc2ccc(C)cc2)CC1` the figure was inactive: 2.29%. With `N/C(=N\O)c1c(N)no[n+]1[O-]` the figure was inactive: -0.952%. With `COc1ccc(C(=O)NCC2(N3CCOCC3)CCCCC2)cc1OC` the figure was inactive: -0.104%. Consider `COc1cc(C(=O)NCC2(N3CCOCC3)CCCCC2)cc(OC)c1C`, for which the inhibition was inactive: 0.106%. In the case of `O=C(NCC1(N2CCOCC2)CCCCC1)c1cc(Br)ccc1Cl`, the inhibition was inactive: -4.82%. Regarding `CN(C)C1(CNC(=O)c2cccc(C#N)c2)CCCCC1`, the inhibition was inactive: -1.68%.

Take `CCCN1CCC(Nc2cc(OC)cc(OC)c2)CC1`: the inhibition was inactive: 1.5%. The result for `Cc1cc(N(CCCl)CCCl)ccc1C=O` reads inactive: 0.377%.

Turning to `c1ccc(CN2CCC(Nc3ccccc3)CC2)cc1`, the inhibition is inactive: -0.336%.

For the compound `N#Cc1ccc(C(=O)NCC2(N3CCCCC3)CCCCC2)cc1`, the inhibition is inactive: 1.17%.

In the case of `CC(C)(C)OC(=O)N1CCC(N(C(=O)c2ccccc2)c2ccc(Cl)cc2)CC1`, the inhibition is inactive: -2.24%. The result for `Cn1c(=O)[nH]cc(N(CCCl)CCCl)c1=O` reads inactive: -0.268%.

For the compound `CN(C)c1ccc(C(=O)NCC2(N3CCCCC3)CCCCC2)cc1`, the inhibition is inactive: -2.64%. With `O=C(NCC1(N2CCCCC2)CCCCC1)c1ccco1` the figure was inactive: 1.69%; with `CCN1CCC(Nc2cccc(F)c2)CC1`, inactive: 0.792%.

On to `Cc1ccccc1NC1(C#N)CCN(Cc2ccccc2)CC1`, for which the inhibition was inactive: -1.99%. The result for `Fc1ccccc1NC1CCN(Cc2ccccc2)CC1` reads inactive: -0.178%; that for `Cc1ccc(C(=O)NCC2(N3CCCCC3)CCCCC2)o1`, inactive: 0.295%. With `Cc1ccc(NC2(C#N)CCN(Cc3ccccc3)CC2)cc1` the figure was inactive: 1.57%.

Take `CC(=O)N(c1ccccc1)C1CCNCC1`: the inhibition is inactive: -0.0881%. Take `COc1cc(OC)cc(C(=O)NCC2(N3CCCCC3)CCCCC2)c1`: the inhibition was inactive: 0.793%. The result for `CN1CCC(Nc2ccc(Cl)cc2)CC1` reads inactive: -0.94%; that for `COc1cccc(C(=O)N(c2cc(C)cc(C)c2)C2CCN(C(=O)OC(C)(C)C)CC2)c1`, inactive: 1.92%.

For the compound `COc1cc(OC)cc(C(=O)NCC2(N3CCOCC3)CCCCC2)c1`, the inhibition was inactive: -0.175%. The result for `CCC(CO)(C(=O)OC1CN2CCC1CC2)c1ccccc1` (centres undefined) reads inactive: 1.96%. With `O=C(O)C1(Nc2ccccc2)CCN(Cc2ccccc2)CC1` the figure was inactive: -0.22%; with `CC(C)(C)OC(=O)N1CCC(Nc2ccccc2)CC1`, inactive: 1.81%; with `CCCOc1ccc(C(=O)NCC2(N(C)C)CCCCC2)cc1`, inactive: 0.0188%. The result for `CN1CCC(Nc2ccc(F)c(Cl)c2)CC1` reads inactive: -2.96%. Turning to `CCOc1ncccc1C(=O)NCC1(N2CCOCC2)CCCCC1`, the inhibition is inactive: 1.48%. The result for `COc1ccc(Cl)cc1C(=O)NCC1(N2CCOCC2)CCCCC1` reads inactive: -1.3%; that for `O=C(OC1CN2CCC1CC2)C1c2ccccc2Oc2ccccc21` (centres undefined), inactive: 1.35%; that for `N#CC1(Nc2ccccc2)CCN(Cc2ccccc2)CC1`, inactive: 0.785%. With `O=C(NCC1(N2CCCCC2)CCCCC1)c1ccc(Cl)s1`, the inhibition is inactive: -0.356%. With `CCOC(=O)N1CCC(Nc2ccc(OC)cc2)CC1` the figure was inactive: -2.08%. On to `Cc1cc(C)cc(N(C(=O)c2ccccc2)C2CCN(C(=O)OC(C)(C)C)CC2)c1`, for which the inhibition is inactive: -0.504%. With `O=C(NCC1(N2CCCCC2)CCCCC1)c1ccc(Cl)nc1` the figure was inactive: 0.166%. Take `O=C(NCC1(N2CCOCC2)CCCCC1)c1cc2ccccc2o1`: the inhibition is inactive: 1.26%. `Cc1cccc(NC2(C#N)CCN(Cc3ccccc3)CC2)c1`: the inhibition was inactive: -1.88%. Consider `CSc1ccccc1C(=O)NCC1(N2CCCCC2)CCCCC1`, for which the inhibition was inactive: -0.422%. On to `COc1ccc(C(=O)NCC2(N3CCCCC3)CCCCC2)c(OC)c1OC`, for which the inhibition was inactive: 5.49%. With `CC(C)(C)OC(=O)N1CCC(N(C(=O)c2ccccc2)c2ccc(F)cc2)CC1` the figure was inactive: 1.21%. The result for `COc1ccc(C(=O)NCC2(N3CCCCC3)CCCCC2)cc1` reads inactive: -1.41%; that for `O=C(NCC1(N2CCCCC2)CCCCC1)c1cccs1`, inactive: -2.52%.

As to `O=C(NCC1(N2CCCCC2)CCCCC1)c1ccc(=O)[nH]c1`, the inhibition is inactive: -1.02%.

As to `COc1cc(C(=O)NCC2(N(C)C)CCCCC2)ccc1OC(F)F`, the inhibition is inactive: 1.76%. For `CCOC(=O)N1CCC(Nc2cccc(C)c2)CC1`, the inhibition was inactive: -0.472%. For the compound `CCOC(=O)N1CCC(Nc2ccc(F)cc2)CC1`, the inhibition is inactive: -0.864%.

On to `COc1ccc(NC2CCN(CCc3ccccc3)CC2)c(OC)c1`, for which the inhibition is inactive: -0.196%. The result for `O=C(NCC1(N2CCCCC2)CCCCC1)c1ccc(F)cc1` reads inactive: 1.22%; that for `CCCCOc1ccc(C(=O)NCC2(N3CCOCC3)CCCCC2)cc1`, inactive: -0.87%.

With `O=P1(N(CCCl)CCCl)SCCCS1`, the inhibition is inactive: 1.23%. The result for `O=C1CCN(Cc2ccccc2)CC1` reads inactive: -0.0792%; that for `CCOc1ccc(C)cc1CN(CCCl)CCCl`, inactive: -2.34%. On to `O=C(NCC1(N2CCOCC2)CCCCC1)c1cc(=O)[nH]c2ccccc12`, for which the inhibition was inactive: -1.28%. On to `COc1cc(C(=O)NCC2(N3CCCCC3)CCCCC2)ccc1OC(F)F`, for which the inhibition was inactive: -4.33%. With `COc1ccc(NC2CCN(C(=O)OC(C)(C)C)CC2)cc1` the figure was inactive: 0.654%; with `CC(C)c1ccc(C(=O)NCC2(N3CCOCC3)CCCCC2)cc1`, inactive: -1.5%. For the compound `CN1CCN(CCOC(=O)C(O)(c2ccccc2)c2ccccc2)CC1`, the inhibition was inactive: 0.393%. With `O=C(NCC1(N2CCCCC2)CCCCC1)c1cccc(C(F)(F)F)c1` the figure was inactive: -2.08%. `N#CC1(Nc2ccccc2)CCN(CCc2ccccc2)CC1`: the inhibition was inactive: -0.94%. The result for `CCN1CCC(Nc2ccc(Cl)cc2)CC1` reads inactive: 0.452%; that for `CSc1ccc(C(=O)NCC2(N3CCOCC3)CCCCC2)cc1`, inactive: 2.32%; that for `O=C(NCC1(N2CCCCC2)CCCCC1)c1cccc([N+](=O)[O-])c1`, inactive: 0.38%. Turning to `O=C(NCC1(N2CCCCC2)CCCCC1)c1ccc(OC(F)F)cc1`, the inhibition is inactive: 2.49%. The result for `CCCOc1ccc(C(=O)NCC2(N(C)C)CCCCC2)cc1OC` reads inactive: -1.03%; that for `O=C(NCC1(N2CCCCC2)CCCCC1)c1cncc(Br)c1`, inactive: -1.2%; that for `CN1CCC(Nc2cccc(F)c2)CC1`, inactive: 0.816%.

`O=C(NCC1(N2CCOCC2)CCCCC1)c1cc(F)c(F)cc1Cl`: the inhibition was inactive: 1.7%.

Regarding `COc1cc(OC)c(C(=O)NCC2(N(C)C)CCCCC2)cc1OC`, the inhibition was inactive: 1.51%. With `CC(C)c1ccc(NC2CCN(C(=O)OC(C)(C)C)CC2)cc1`, the inhibition is inactive: 0.509%. With `CN(C)c1cccc(C(=O)NCC2(N3CCCCC3)CCCCC2)c1` the figure was inactive: -0.985%; with `COc1ccc(CN(CCCl)CCCl)cc1Cl`, inactive: 0.393%.
